Laboratory results from US20240368275A1 (ELPIS BIOPHARMACEUTICALS, published 2024).

The chains behind the UniProt entries cited, without tags or fusion partners. Residues count along the entry.
UniProt P07766, 23-207 limits assumed: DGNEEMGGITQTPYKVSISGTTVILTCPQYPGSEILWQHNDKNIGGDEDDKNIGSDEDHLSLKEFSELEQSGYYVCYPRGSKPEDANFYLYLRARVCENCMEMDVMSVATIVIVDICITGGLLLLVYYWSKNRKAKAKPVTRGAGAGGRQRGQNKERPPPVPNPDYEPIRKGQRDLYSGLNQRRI

Assays:
CD3 on Jurkat cells [1] = biological target: T1, CD3 on Jurkat cells (UniProt P07766 23-207, limits assumed); assay: cell-based or functional assay
CD3 on Jurkat cells [2] = biological target: T1, CD3 on Jurkat cells; assay: flow cytometry on Jurkat cells
Experimental: The engagement of the antibodies to CD3 has been assessed by FACS. Jurkat cells were plated at 100,000 cells/well in a 96-well plate with 50 μL of full media. Anti-Nectin4/CD3 antibodies were 3-fold serial titrated from 20 nM. 50 μL was added to the cells and incubated for 1 hours at room temperature with shaking. Samples were washed one time with flow buffer. […] Samples were washed once with flow buffer. Samples were stained with 100 uL Zombie Fixable Viability Dyes at 1:800 dilution per well and incubated in dark at room temperature for 30 mins. Samples were spun down at 1300 rpm for 5 minutes and washed once with 200 uL flow buffer. Reconstituted samples in 200 uL of flow buffer and read on Attune NxT cytometer. EC50 values for CD3 binding were calculated using Prism 8.1 software.

[3] = biological target: T2, full-length human Nectin4 with C-terminal flag and Myc tags on CHO cells (human, UniProt Q96NY8 32-510); assay: flow cytometry on CHO/Nectin4 cells
T2 construct: whole, on cells; also called Nectin4/CHO; CHO/Nectin4; not shown: C-terminal flag and Myc tags of pCMV6-Entry vector
T2 sequence (looked up): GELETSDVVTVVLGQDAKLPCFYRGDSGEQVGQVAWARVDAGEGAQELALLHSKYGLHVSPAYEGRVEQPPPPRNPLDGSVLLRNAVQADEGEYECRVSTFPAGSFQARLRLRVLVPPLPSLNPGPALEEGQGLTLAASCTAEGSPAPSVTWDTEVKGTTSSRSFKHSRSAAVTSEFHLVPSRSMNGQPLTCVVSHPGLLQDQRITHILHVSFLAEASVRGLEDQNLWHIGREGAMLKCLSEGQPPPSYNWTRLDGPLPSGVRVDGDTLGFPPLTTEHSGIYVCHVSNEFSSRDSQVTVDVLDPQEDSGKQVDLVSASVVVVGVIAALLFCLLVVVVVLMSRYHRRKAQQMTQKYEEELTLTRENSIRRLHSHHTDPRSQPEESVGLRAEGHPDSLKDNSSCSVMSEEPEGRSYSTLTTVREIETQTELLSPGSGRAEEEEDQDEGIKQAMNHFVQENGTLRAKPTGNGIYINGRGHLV
Experimental: The binding activities of the bispecific antibodies to Nectin4 has been assessed by FACS. Nectin4/CHO Nectin4 cells were plated at 100,000 cells/well in a 96-well plate in 50 μL of full media. Cells were rested 1 hour at 37° C. Anti-Nectin4/CD3 was 3-fold serial titrated from 50 nM. 50 μL was added to the cells and incubated for 1 hours with shaking. Samples were washed one time with flow buffer. […] Samples were washed once with flow buffer. Samples were stained with 100 uL Zombie Fixable Viability Dyes (1:800 dilution) per well and incubated in dark at room temperature for 30 mins. Samples were spun down at 1200 rpm for 5 minutes and washed once with 200 uL flow buffer. Reconstituted samples in 200 uL of flow buffer and read on Attune NxT cytometer. EC₅₀ values for Nectin4 Binding were determined using Prism software. Similar method was used to determine the binding activities of antibodies to cancer cell line T47D and HT1376.

[4] = biological target: T3, human Nectin4-HIS tagged recombinant protein (human, UniProt Q96NY8 32-349); assay: ELISA, coated Nectin4 HIS tagged protein, bispecific titrated, anti-Human HRP
T3 construct: also called hNectin4-HIS; Nectin4 HIS tagged protein; not shown: HIS tag
T3 sequence (looked up): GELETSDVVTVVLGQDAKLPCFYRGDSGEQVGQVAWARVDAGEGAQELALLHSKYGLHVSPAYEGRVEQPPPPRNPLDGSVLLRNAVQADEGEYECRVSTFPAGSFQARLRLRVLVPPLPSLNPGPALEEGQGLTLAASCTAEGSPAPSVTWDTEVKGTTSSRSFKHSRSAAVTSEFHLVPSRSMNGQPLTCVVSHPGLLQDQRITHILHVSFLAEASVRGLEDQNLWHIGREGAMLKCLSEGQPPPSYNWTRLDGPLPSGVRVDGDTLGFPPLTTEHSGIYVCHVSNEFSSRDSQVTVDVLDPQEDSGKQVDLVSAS
Experimental: An ELISA assay was developed to determine the EC₅₀ of anti-Nectin4/CD3 bispecific antibodies. Briefly, 384 well plate was immobilized with human CD3E or Nectin4 HIS tagged protein at final concentration of 2 ug/mL in 1×PBS in total volume of 25 uL per well. The plate was incubated overnight at 4° C. followed by blocking with 80 uL of superblock per well for 1 hour. Purified anti-Nectin4/CD3 was 3-fold serial titrated from 100 nM. 25 uL was added to human Nectin4/CD3 immobilized wells and incubated for 1 hour with shaking. The CD3E or Nectin4 binding was detected by adding 25 uL of anti-Human HRP diluted at 1:10000 in 1×PBST. In between each step, the plate was washed 3 times with […] in a plate washer. The plate was then developed with 20 ul of TMB substrate for 5 mins and stopped by adding 20 ul of 2N sulfuric acid. The plate was read at OD450 nm Biotek plate reader and then plotted in Prism 8.1 software to calculate EC50. Table 8 below show the binding activities of the bispecific antibodies to Nectin4 and CD3E via ELISA.

[5] = biological target: T3, human Nectin4-HIS tagged recombinant …; assay: SPR Biacore T200, bispecific captured on Protein A chip, hNectin4-HIS injected
Experimental: Kinetic analysis of exemplary anti-Nectin4/CD3 bispecific antibodies to CD3E and Nectin4 has been assessed by SPR technology with Biacore T200. The assay was run with Biacore T200 control software version 2.0. For each cycle, 1 ug/mL of anti-hNectin4/CD3 antibody was captured for 60 seconds at flow rate of 10 ul/min on flow cell 2 in 1×HBSP buffer on Protein A sensor chip. 2-fold serial diluted CD3E-HIS or hNectin4-HIS tagged protein was injected onto both reference flow cell 1 and anti-Nectin4/CD3 bispecific captured flow cell 2 for 150 seconds at flow rate of 30 ul/mins followed by wash for 300 seconds. The flow cells were then regenerated with Glycine pH2 for 60 seconds at flow rate of 30 ul/mins. 8 concentration points from 100 nM-0 nM (CD3E-HIS) or 300 nM-0 nM (Nectin4-HIS) was assayed per anti-Nectin4 IgG in a 96 well plate. The kinetics of Anti-Nectin4/CD3 bispecific binding to CD3E and Nectin4 proteins was analyzed with Biacore T200 evaluation software version 3.0. The specific binding response unit was derived from subtraction of binding to reference flow cell 1 from antibody captured flow cell 2. Table 10 below listed the kinetics results. ND means not determined. NA means data not available.

B1: EP456/EP370/EP289 anti-Nectin4/CD3 bispecific antibody (bispecific antibody)
chain: not shown
heavy: EVQLVQSGAEVKKPGASVKVSCKASGYTFTGYYMHWVRQAPGQGLEWMGRINPNSGGTNYAQKFQGRVTMTRDTSISTAYMELSGLRSDDTAVYFCARVTYNIGWYIDYWGQGTLVTVSSASTKGPSVFPLAPSSKSTSGGTAALGCLVKDYFPEPVTVSWNSGALTSGVHTFPAVLQSSGLYSLSSVVTVPSSSLGTQTYICNVNHKPSNTKVDKKVEPKSCDKTHTCPPCPAPEAAGGPSVFLFPPKPKDTLMISRTPEVTCVVVDVSHEDPEVKFNWYVDGVEVHNAKTKPREEQYNSTYRVVSVLTVLHQDWLNGKEYKCKVSNKALGAPIEKTISKAKGQPREPQVCTLPPSRDELTKNQVSLSCAVKGFYPSDIAVEWESNGQPENNYKTTPPVLDSDGSFKLVSKLTVDKSRWQQGNVFSCSVMHEALHNHYTQKSLSLSPGK
light: QAVVTQPPSVSVAPGKTATITCGGNNIGSKGVHWYQQKPGQAPVLVIYYDTDRPSGIPERLSGSNSGNTATLTISRVEAGDEADYYCQVWDSSSDHPVFGGGTKLTVLGQPKANPTVTLFPPSSEELQANKATLVCLISDFYPGAVTVAWKADGSPVKAGVETTKPSKQSNNKYAASSYLSLTPEQWKSHRSYSCQVTHEGSTVEKTVAPTECS
NFAT reporter EC50 (CD3 on Jurkat cells [1]): 102 pM
EC50 (CD3 on Jurkat cells [2]): 1030 pM
EC50 [3]: 253 pM
EC50 [4]: 14 pM
Kd [5]: 4230 pM
koff [5]: 0.000412 s⁻¹
kon [5]: 97400 M⁻¹ s⁻¹
